The record followed here is patent US8497349B2, “Use of multivalent synthetic ligands of surface nucleolin for treating cancer or inflammation” (Centre National de la Recherche Scientifique (CNRS), priority 2006, dated 2013).

Protein sequences, listed by entry. Tags and fused reporters are not part of them. Residues count along the entry.
UniProt P19338, 644-710: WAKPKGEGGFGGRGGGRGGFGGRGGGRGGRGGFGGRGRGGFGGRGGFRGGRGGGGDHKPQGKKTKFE
UniProt P19338, 2-308: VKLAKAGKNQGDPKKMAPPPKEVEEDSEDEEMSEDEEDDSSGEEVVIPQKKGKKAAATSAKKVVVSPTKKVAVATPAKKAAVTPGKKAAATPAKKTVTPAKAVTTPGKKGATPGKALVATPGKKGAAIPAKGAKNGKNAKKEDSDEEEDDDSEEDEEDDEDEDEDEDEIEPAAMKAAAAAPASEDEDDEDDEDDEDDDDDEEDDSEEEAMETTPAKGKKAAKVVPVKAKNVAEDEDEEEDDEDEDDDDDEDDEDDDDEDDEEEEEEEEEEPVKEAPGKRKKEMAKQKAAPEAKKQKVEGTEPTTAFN
UniProt P19338, 2-710: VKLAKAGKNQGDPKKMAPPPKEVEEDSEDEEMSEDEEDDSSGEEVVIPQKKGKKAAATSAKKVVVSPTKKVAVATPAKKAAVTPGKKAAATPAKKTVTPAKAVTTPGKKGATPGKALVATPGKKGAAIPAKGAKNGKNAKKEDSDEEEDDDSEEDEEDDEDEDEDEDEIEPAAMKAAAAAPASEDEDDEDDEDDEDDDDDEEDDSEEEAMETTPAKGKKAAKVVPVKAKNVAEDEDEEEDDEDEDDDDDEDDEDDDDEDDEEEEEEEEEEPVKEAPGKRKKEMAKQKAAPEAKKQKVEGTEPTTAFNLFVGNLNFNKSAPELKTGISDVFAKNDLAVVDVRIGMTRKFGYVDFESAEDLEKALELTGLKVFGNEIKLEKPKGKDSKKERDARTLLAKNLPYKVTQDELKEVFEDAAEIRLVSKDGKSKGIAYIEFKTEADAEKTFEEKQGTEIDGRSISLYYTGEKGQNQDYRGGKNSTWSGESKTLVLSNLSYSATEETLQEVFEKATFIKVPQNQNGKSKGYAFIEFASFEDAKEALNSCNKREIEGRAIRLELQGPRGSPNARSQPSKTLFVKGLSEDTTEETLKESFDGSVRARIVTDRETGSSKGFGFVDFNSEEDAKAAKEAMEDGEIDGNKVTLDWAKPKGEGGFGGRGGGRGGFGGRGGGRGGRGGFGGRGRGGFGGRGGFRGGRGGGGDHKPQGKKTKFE
UniProt P19338, 309-710: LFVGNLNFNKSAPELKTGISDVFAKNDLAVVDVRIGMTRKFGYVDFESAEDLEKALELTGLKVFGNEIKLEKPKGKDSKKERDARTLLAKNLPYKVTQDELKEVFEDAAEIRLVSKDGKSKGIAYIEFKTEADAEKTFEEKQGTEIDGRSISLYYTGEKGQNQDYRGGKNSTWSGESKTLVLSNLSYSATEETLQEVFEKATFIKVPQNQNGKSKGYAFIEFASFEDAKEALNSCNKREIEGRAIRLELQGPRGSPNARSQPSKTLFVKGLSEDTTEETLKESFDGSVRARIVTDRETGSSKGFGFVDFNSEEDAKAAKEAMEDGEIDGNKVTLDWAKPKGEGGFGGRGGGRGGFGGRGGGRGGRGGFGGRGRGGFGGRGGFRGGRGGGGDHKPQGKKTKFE

The test system of data set [1] is TNF-α. In words: TNF-α production by human primary PBMC stimulated by heat-killed Staphylococcus aureus (ELISA). In kind it is cell-based. To be noted: 10 μM; 10^8 HKSA/ml particles; 20 hours. Here is the method: FIG. 22. Inhibition by HB-19 of the production of TNF-α and IL-6 by primary human mononuclear peripheral blood cells (PBMC) stimulated by Staphylococcus aureus bacteria inactivated by heat (HKSA, <<heat-killed Staphylococcus aureus>>). PBMCs were isolated by centrifugation on a Ficoll density gradient using whole human blood EDTA-potassium and resuspended in RPMI 1640 containing 1% human serum AB (Invitrogen). Cells at a concentration of 10^6 cell/0.5 ml, in the absence (control) or presence (10 μM) of HB-19, Nucant 3, Nucant 6 or Nucant 7 or Dexamethasone (Dex. 1 μg/ml), were stimulated with 10^8 HKSA/ml particles (InvivoGen, San Diego, USA). PBMC cultures were incubated at 37° C. in an incubator with 5% CO2 and TNF-α (A) and IL-6 (B) levels were measured by ELISA in culture supernatants collected after 20 hours of incubation.
The inventors therefore measured TNF-α and IL-6 levels in human primary PBMC cultures in response to Staphylococcus aureus bacteria inactivated by heat (HKSA, <<heat-killed Staphylococcus aureus>>), in the absence (control) or presence of 10 μM of the compounds HB-19, Nucant 3, Nucant 6, or Nucant 7. As the positive control (Dex.), PBMC was also treated with dexamethasone which is a glucocorticosteroid with known anti-inflammatory and immunosuppressant activity. […]
(In an ELISA, binding on a coated surface is turned into a signal by an enzyme label.)

The target of data set [2] is T1, human nucleolin (Homo sapiens, UniProt P19338).
T1 construct: whole nucleolin and the N- and C-terminal parts contain amino acids 1-707, 1-308 and 309-707 respectively; made in house; host or cells: in vitro transcription/translation in rabbit reticulocyte lysates
The data set can be described thus: Binding of biotinylated HB19 to nucleolin constructions (avidine-agarose purification). The text has this: FIG. 1. A. Structure of nucleolin protein. Human nucleolin consists of 707 amino acids. Nucleolin can be broken down into two main parts: (3,4): N-terminal (aa 1-308) and C-terminal (309-706). The N-terminal domain consists of 4 long acid domains, consisting of an uninterrupted repetition of glutamic acid and aspartic acid (A1, A2, A3, A4). The C-terminal domain, consisting of alternating hydrophobic and hydrophilic regions forming 4 areas of binding to RNA called RBDs (for <<RNA Binding Domains>>: I, II, III, IV) and its extremity (aa 644-707) carries the highly basic RGG domain comprised of Arg-Gly-Gly repetitions. B. Identification of the binding domain of compound HB19 to nucleolin: the RGG domain. Nucleolin constructions corresponding to the N- and C-terminal areas were obtained by in vitro transcription/translation in a system using rabbit reticulocyte lysates. Thus, whole nucleolin and the N- and C-terminal parts contain amino acids 1-707, 1-308 and 309-707 respectively labelled with [^35S] Met/Cys were produced. The labelled crude product was then incubated with biotinylated HB19 and the complexes were purified on an avidine-agarose column. As expected, whole nucleolin interacts with HB19. […] The first construction corresponds to cDNA coding for the C-terminal part of human nucleolin including the 4 RBDs and the RGG domain, in fusion with GST protein (Glutathione S-Transferase) to allow detection with anti-GST antibodies. The other constructions, also in fusion with GST, correspond to this same part but one or more domains shorter. All these proteins are produced by E. coli. The capacity of HB19 to interact with each construction was tested by incubating crude bacterial extracts, expressing different nucleolin constructions, with biotinylated HB19 which was then purified by fixing to Avidine-agarose.

Data set [3] deals with cells cultured in vitro. The data set can be described thus: Toxicity on cells cultured in vitro for several weeks in the presence of HB19. In kind it is cell-based. An excerpt: This greatly limits the possibility of the occurrence of side effects.
Data set [4] has as its system IL-6. In words: IL-6 production by primary peritoneal murine macrophages stimulated by LPS (ELISA). The class given is cell-based, mouse. To be noted: 4 μM of HB-19; LPS 100 and 1000 ng/ml; base level taken into account. Here is the method:
FIG. 19. Inhibition by HB-19 of the production of TNF-α and IL-6 by primary peritoneal murine macrophages stimulated by various LPS preparations. Peritoneal murine macrophages in the absence (−) or presence (+) of 4 μM of HB-19 were either not stimulated (B4 0) or stimulated with LPS from Escherichia coli type 0111:B4 at 100 ng/ml (B4 100) and 1000 ng/ml (B4 1000). Cell cultures were incubated at 37° C. in an incubator with 5% CO2 for 20 hours and levels of TNF-α (A) and IL-6 (B) were measured by ELISA.
FIG. 20. Inhibition by Nucant 7 of the production of TNF-α and IL-6 by primary peritoneal murine macrophages stimulated by various LPS. Peritoneal murine macrophages in the absence (−) or presence (+) of 10 μM of Nucant 7 were either not stimulated (−) or stimulated (+) with LPS from Escherichia coli type 0111:B4 at 10 ng/ml, 100 ng/ml and 1000 ng/ml. Cell cultures were incubated at 37° C. in an incubator with 5% CO2 for 20 hours and levels of TNF-α (A) and IL-6 (B) were measured by ELISA. […]
Macrophages, in the absence (−) or presence (+) of 4 μM HB-19 or 10 μM Nucant 7, were either non-stimulated or stimulated with LPS from Escherichia Coli serotype 0111:B4 at 10 ng/ml, 100 ng/ml and 1000 ng/ml. […] TNF-α and IL-6 protein levels were measured by ELISA.

In the case of `CCCC[C@H](NC(=O)[C@H](CCCCNC(=O)[C@H](CCCNC(=N)N)NC(=O)[C@@H]1CCCN1C[C@@H](N)CCCCN)NC(=O)[C@H](CCC(=O)O)NC(=O)[C@H](CCCCNC(=O)[C@H](CCCNC(=N)N)NC(=O)[C@@H]1CCCN1C[C@@H](N)CCCCN)NC(=O)[C@@H]1CCCN1C(=O)CNC(=O)[C@H](CCCCNC(=O)[C@H](CCCNC(=N)N)NC(=O)[C@@H]1CCCN1C[C@@H](N)CCCCN)NC(=O)[C@H](CCCCN)NC(=O)[C@H](CCCCNC(=O)[C@H](CCCNC(=N)N)NC(=O)[C@@H]1CCCN1C[C@@H](N)CCCCN)NC(=O)[C@H](CCCNC(=N)N)NC(=O)[C@@H]1CCCN1C[C@@H](N)CCCCN)C(N)=O` [HB19, 5[Kpsi(CH2N)PR]-TASP], the “inhibition of TNF-α production” value in data set [1] is given as “significant inhibition”. Besides, the “interaction with RGG domain alone” value in data set [2] (GST fusion constructions produced by E. coli) was “enough for this interaction”. In addition, the “interaction with N-terminal part of nucleolin” value in data set [2] (amino acids 1-308) is on record as “does not interact at all”. In addition, the “interaction with whole nucleolin” value in data set [2] (amino acids 1-707, [35S] labelled) was “interacts”. For the same compound, the “interaction with C-terminal part of nucleolin” value in data set [2] (amino acids 309-707) is “contains the target”. Further, the “toxic effect on cells cultured in vitro” value in data set [3] is “no toxic effect”. Besides, the “net degree of inhibition of IL-6 production” value in data set [4] is 68-71%.
